Test results as given in patent US20050037506A1, “Methods of determining film thicknesses for an aerosol delivery article” (published 2005).

Experiment: not given
Details: alprazolam film ~1.3 microns, stainless steel foil, vaporized at 13 V (peak substrate temperature 240° C.)

Row | Compound | percent yield
1 | Cc1nnc2n1-c1ccc(Cl)cc1C(c1ccccc1)=NC2 | 11.5%

Same assay, conditions: alprazolam film ~1.3 microns, stainless steel foil, vaporized at 16 V

Row | Compound | percent yield
2 | Cc1nnc2n1-c1ccc(Cl)cc1C(c1ccccc1)=NC2 | 93.4%

Experiment: Thickness and temperature window for selected minimum aerosol purity and yield (Methods B and D)
Details: window from plots of purity and yield versus temperature and film thickness (FIGS. 12C-19C)

Row | Compound | aerosol purity within the thickness and temperature window obtained | aerosol yield within the thickness and temperature window obtained
3 | CC(C)(C)NCC(O)c1ccc(O)c(CO)c1 (stereo not shown) | greater than 95% | greater than 85%
4 | CC1(C)O[C@@H]2C[C@H]3[C@@H]4C[C@H](F)C5=CC(=O)C=C[C@]5(C)[C@H]4[C@@H](O)C[C@]3(C)[C@]2(C(=O)CO)O1 | greater than 90% | greater than 85%
5 | eletriptan | greater than 95% | greater than 75%
6 | prochlorperazine | greater than 98% | greater than 85%
7 | sildenafil | greater than 98% | greater than 90%
8 | tadalafil | greater than 95% | greater than 90%
9 | valdecoxib | greater than 90% | greater than 50%
